Our source for the Kd values is article PMC12254369, “Small molecule disruption of RARα/NCoR1 interaction inhibits chaperone-mediated autophagy in cancer” (EMBO Molecular Medicine, 2025).

Amino acid sequences for entries named in this document (tags omitted). Residues count along the entry.
UniProt P10276, 176-462 limits assumed: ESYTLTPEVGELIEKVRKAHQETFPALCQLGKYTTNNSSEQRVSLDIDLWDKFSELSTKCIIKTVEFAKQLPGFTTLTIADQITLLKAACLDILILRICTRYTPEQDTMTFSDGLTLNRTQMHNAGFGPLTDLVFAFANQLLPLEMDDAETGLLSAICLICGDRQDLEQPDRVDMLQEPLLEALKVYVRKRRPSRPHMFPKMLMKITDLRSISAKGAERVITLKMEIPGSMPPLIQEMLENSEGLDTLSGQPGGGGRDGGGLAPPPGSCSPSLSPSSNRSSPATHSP

The target in this assay is Recombinant RARα LBD (Homo sapiens, UniProt P10276). Kind of assay: isothermal titration calorimetry. As to conditions: 25 °C, pH 8.0, 25 mM sodium phosphate, 150 mM NaCl, 1 mM TCEP; RARα injected into compound. For orientation: In ITC the heat of successive injections is recorded.

A word on the Kd: it is the equilibrium constant for the complex coming apart.

For the compound `O=C(CSc1ncc(CO)n1Cc1ccc(F)cc1)Nc1ccc(OC(F)(F)F)cc1`, the Kd stood at 2000 nM.
